TRPM1 prom inh: inhibitors of MITF-driven TRPM1 promoter in melanoma cells; SK-MEL-5 TRPM1 promoter luciferase, 24 h; inhibition, % at 12.5 µM; 0.83% of 330,000 active; AID 488899;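 active = mean inhibition across replicates of 60% or more, whatever share of single replicates reaches that level; inconclusive = some that reach 60%, reason not given; inactive = mean inhibition across replicates below 60%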
Wnt act: activates Wnt/beta-catenin signaling in a reporter cell assay; activation, % at 9.35 µM; activator, plate reader; 1.2% of 300,000 active; in the data active = activation above about 30%, passing the limit was not always enough; inconclusive = no clear call, values can overlap the other calls;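 note: 0% = neutral control wells and 100% = positive control wells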
PGC1a acetyl inh: PGC1a acetylation modulation, inhibitor mode; U2OS PGC1a acetylation, AlphaScreen anti-acetyl-lysine; with virally co-expressed GCN5 acetyltransferase; 0.17% of 350,000 active; inhibition, % at 15.6 µM;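 active = every replicate shows inhibition of at least 40%; inconclusive = mean inhibition at least 40% but some replicate below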;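 note: 0% = neutral control wells and 100% = positive control wells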
UUG fidelity: alters start codon recognition fidelity in yeast. S. cerevisiae UUG-firefly luciferase reporter, luminescence/redox ratio. activity score, % at 18.7 µM. 0.13% of 350,000 active. AID 602363;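 active = replicate mean at a twofold rise or more, about +100% in these data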;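 also: firefly luciferase made from a UUG start codon reports start codon fidelity; reporter light over untreated wells divided by growth signal over untreated wells; some hits fall short of that in this replicate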
MITF TRPM1 HTS: increases MITF-driven TRPM1 promoter luciferase signal; 0.75% of 300,000 active; SK-MEL-5 TRPM1-promoter luciferase, 24 h; % of positive control, neutral wells = 0; activation, % at 12.5 µM;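 active = mean activation of at least 80% with every replicate also reaching 80%; inconclusive = mean reaches 80% but some replicate falls short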;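 note: 0% = neutral control wells and 100% = parthenolide positive control wells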
miR122 inh: inhibitors of miR-122 in Huh7 cells | activation (reporter increase), % at 12.5 µM | 0.3% of 340,000 active | Huh7 miR-122 Renilla luciferase sensor, 48 h; neutral wells = 0, positive control = 100;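 active = mean replicate activation score at least 90 and every replicate individually at or above 90; inconclusive = only one of the two criteria met; inactive = neither criterion met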;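 note: higher luciferase means less miR-122 activity so hits act as miR-122 inhibitors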
* marks the source's active call; other numbers are inactive results; ? = inconclusive; / = no result; [ ] = dose if it differs, or a comment. Only some compounds are listed: those with a hit (about 2.1% of all), similar ones and a draw of the others.

# | smiles | TRPM1 prom inh | Wnt act | PGC1a acetyl inh | UUG fidelity | MITF TRPM1 HTS | miR122 inh
1 | Cc1ccc(C(=O)/C=C\C(=O)c2ccc(C)cc2)cc1 | -5 | 1 | / | / | 3 | /
2 | CC(=O)NCCc1ccc(C(=O)COC(=O)c2cc(C)oc2C)cc1 | -16 | 37* | 10 | -8 | 17 | /
3 | Cc1cc(C(=O)OCC(=O)NCCc2ccccc2)c(C)o1 | 5 | / | 29 | 2 | -3 | 4
4 | CNC[C@H]1Oc2ccc(NS(=O)(=O)c3ccc(OC)cc3)cc2CC(=O)N([C@H](C)CO)C[C@H]1C | / | / | -1 | / | / | 3[16.7 µM]
5 | CN1c2ccc(-c3ccccc3F)cc2[C@H]2[C@H](CCN2S(=O)(=O)c2ccccc2)[C@@H]1CO | / | / | -16 | -11 | / | 4[16.7 µM]
6 | CCCCN(C)S(=O)(=O)c1ccc(C(=O)N=c2sc3cc(NC(C)=O)ccc3n2C)cc1 | -1 | 39* | / | -12 | 2 | -1
7 | CCCCN(CC)S(=O)(=O)c1ccc(C(=O)N=c2sc3cc(NC(C)=O)ccc3n2C)cc1 | 8 | -8 | -3 | -2 | -9 | -4
8 | CCOC(=O)c1cnn(-c2ccc(C)cc2)c1N | -72 | 44* | 14 | -8 | 77 | -2
9 | CCOC(=O)c1cnn(-c2ccccc2)c1NC(=O)CN1CCCCC1 | -7 | 41* | 6 | / | / | 10
10 | CCOC(=O)c1cnn(-c2ccccc2)c1-n1cccc1 | 0 | 6 | -23 | -16 | 0 | -5
11 | CC1(C(=O)NS(=O)(=O)c2ccc(Cl)cc2)CCN1C(=O)c1cccc(F)c1 (stereo unspecified) | / | -1 | 5 | -4 | / | -2
12 | CC1(C(=O)NS(=O)(=O)c2ccc(C#N)cc2)CCN1C(=O)c1cccc(F)c1 (stereo unspecified) | / | 49* | 32 | -8 | / | -7
13 | CC1(C)Cc2ccccc2C(Nn2cnnc2)=N1 | 1 | -2 | 4 | -7 | 0 | -1
14 | CC1(C)Cc2ccccc2C2=NNC(=O)C2=N1 | 96* | 15 | / | 7 | -95 | 0
15 | CCOC(=O)CNc1c(-c2ccccc2)nc2ccc(Cl)cn12 | -5 | 23 | -3 | -30 | 13 | -3
16 | COC(=O)CNc1c(-c2ccccn2)nc2ccc(Br)cn12 | -45 | 40* | -2 | -46 | / | -14
17 | Cc1nc2nc(-c3cccs3)cn2nc1C | -40 | 47* | / | / | / | /
18 | Cn1cccc1-c1nc2ccc([N+](=O)[O-])cc2[nH]1 | -87 | 14 | 2 | 53 | 99* | -5
19 | O=[N+]([O-])c1ccc2nc(-c3ccccc3)[nH]c2c1 | -103 | 68* | / | -12 | 103* | -9
20 | COC(=O)C[C@@H]1CC[C@@H]2[C@@H](COc3ccc(NC(=O)NC(C)C)cc3C(=O)N2C)O1 | / | / | -3 | -6 | / | -17[16.7 µM]
21 | Cn1cccc1/C=C1\Cc2ccccc2C1=O | -56 | 63* | 2 | -3 | 59 | -7
22 | Cn1cccc1/C=C1\CCc2ccccc2C1=O | -7 | 34* | 4 | -52 | 5 | -6
23 | O=C1/C(=C\c2ccc(Br)o2)Cc2ccccc21 | -11 | 41* | 20 | -8 | 12 | 45
24 | O=C1/C(=C/c2cccs2)Cc2ccccc21 | -18 | ? | / | -10 | 18 | -8
25 | C[C@@H]1CN([C@@H](C)CO)C(=O)c2cc(C#CC3CCCCC3)cnc2O[C@H]1CN(C)C(=O)NC1CCCC1 | / | / | -1 | 34 | / | 10[16.7 µM]
26 | COc1ccc(S(=O)(=O)Nc2ccc3c(c2)CC(=O)N([C@@H](C)CO)C[C@H](C)[C@H](CN(C)S(=O)(=O)c2ccccc2)O3)cc1 | / | / | 6 | -4 | / | -5[16.7 µM]
27 | CCCCNC(=O)C1CC(c2cccc([N+](=O)[O-])c2)=NO1 (stereo unspecified) | -88 | 38* | 3 | -10 | 89* | -9
28 | c1ccc(-c2csc(N3CCOCC3)n2)cc1 | -82 | 39* | -4 | -11 | 81* | -14
29 | O=C1CNC(=S)N1c1nc(-c2ccccc2)cs1 | -85 | 50* | / | / | 88* | /
30 | COc1cccc(-c2ccc3c(c2)[C@H]2[C@H](CCN2S(=O)(=O)c2ccccc2OC)[C@@H](CO)N3C)c1 | / | / | -8 | -15 | / | 3[16.7 µM]
31 | Cc1[nH]c2ccc(C(C)C)cc2c1CC(=O)O | 4 | -1 | 76* | -9 | / | 0
32 | c1csc(-c2nc(CN3CCSCC3)cs2)c1 | 4 | 43* | 0 | -63 | -9 | -7
33 | Cc1cc(Cl)c2oc(C(=O)NCCC3CCCCO3)c(C)c2c1 (stereo unspecified) | -93 | 25 | -13 | -6 | 95* | -4

Profiles, looked up by structure. Order of screens: TRPM1 prom inh	Wnt act	PGC1a acetyl inh	UUG fidelity	MITF TRPM1 HTS	miR122 inh
COc1ccc(S(=O)(=O)Nc2ccc3c(c2)CC(=O)N([C@@H](C)CO)C[C@H](C)[C@H](CN(C)S(=O)(=O)c2ccccc2)O3)cc1 in the list: /	/	6	-4	/	-5[16.7 µM]
CCCCNC(=O)C1CC(c2cccc([N+](=O)[O-])c2)=NO1 (stereo unspecified) in the list: -88	38*	3	-10	89*	-9
O=C1/C(=C\c2ccc(Br)o2)Cc2ccccc21 in the list: -11	41*	20	-8	12	45
Cn1cccc1/C=C1\Cc2ccccc2C1=O in the list: -56	63*	2	-3	59	-7

From PubChem
